Laboratory results from patent publication US12648569B2 (priority 2022, dated 2026).
Where a name gives a salt, the structure may show the parent alone.

These molecules were tested on M173.

Q: With O=P([O-])(O)O.[K+] as the molecule, how does the “Survival rate at 2 h (%)” value read?
A: Its value is 89.33%.

Q: What about the “Survival rate at 6 h (%)” value of the same molecule?
A: The value was 78.00%.

Q: Which results are given for N.N.O=S(=O)(O)O [Ammonium sulfate]?
A: Survival rate at 2 h (%): 75.33%; Survival rate at 6 h (%): 80.67%

Q: For COC(=O)Nc1nc2ccccc2[nH]1 [Carbendazim], which “Survival rate at 2 h (%)” value is on record?
A: The value was 79.33%.

Q: What about the “Survival rate at 6 h (%)” value of the same molecule?
A: Its value is 70.00%.

Q: Which “Survival rate at 2 h (%)” value does the source give for N#Cc1c(Cl)c(Cl)c(Cl)c(C#N)c1Cl [Chlorothalonil] here?
A: The value was 86.71%.

Q: What about the “Survival rate at 6 h (%)” value of the same molecule?
A: Its value is 89.24%.

Q: CN/C(=N/CC1CCOC1)N[N+](=O)[O-] (stereo not shown) [Dinotefuran] was tested. Which “Survival rate at 2 h (%)” value did it give?
A: Its value is 87.97%.

Q: And the “Survival rate at 6 h (%)” value?
A: Its value is 83.54%.

Q: How did the “Survival rate at 2 h (%)” value turn out when O=[N+]([O-])c1cc(C(F)(F)F)c(Cl)c([N+](=O)[O-])c1Nc1ncc(C(F)(F)F)cc1Cl [Fluazinam] was run?
A: The value was 56.00%.

Q: What about the “Survival rate at 6 h (%)” value of the same molecule?
A: The value was 58.67%.

Q: How did the “Survival rate at 2 h (%)” value turn out when CCO[PH](=O)O [Fosetyl-aluminum] was run?
A: Its value is 86.08%.

Q: What about the “Survival rate at 6 h (%)” value of the same molecule?
A: Its value is 82.91%.

Q: For CC1(C)[C@H](C(=O)O[C@H](C#N)c2cccc(Oc3ccccc3)c2)[C@@H]1/C=C(\Cl)C(F)(F)F [Gamma-cyhalothrin], which “Survival rate at 2 h (%)” value is on record?
A: Its value is 65.82%.

Q: And the “Survival rate at 6 h (%)” value?
A: Its value is 103.80%.

Q: For COCC(=O)N(c1c(C)cccc1C)[C@H](C)C(=O)OC [Metalaxyl-M], which “Survival rate at 2 h (%)” value is on record?
A: The value was 103.80%.

Q: What about the “Survival rate at 6 h (%)” value of the same molecule?
A: Its value is 97.47%.

Q: For CCCOC(=O)NCCCN(C)C [Propamocarb hydrochloride], which “Survival rate at 2 h (%)” value is on record?
A: Its value is 76.00%.

Q: And the “Survival rate at 6 h (%)” value?
A: Its value is 75.33%.

Q: What does the source list for O=[N+]([O-])c1c(Cl)c(Cl)c(Cl)c(Cl)c1Cl [Quintozene]?
A: Survival rate at 2 h (%): 124.05%; Survival rate at 6 h (%): 85.44%

Q: CN1COCN(Cc2cnc(Cl)s2)/C1=N\[N+](=O)[O-] [Thiamethoxam] was tested. Which “Survival rate at 2 h (%)” value did it give?
A: Its value is 103.16%.

Q: What about the “Survival rate at 6 h (%)” value of the same molecule?
A: The value was 111.39%.

Q: With CN(C)C(=S)SSC(=S)N(C)C [Thiram] as the molecule, how does the “Survival rate at 2 h (%)” value read?
A: The value was 79.11%.

Q: And the “Survival rate at 6 h (%)” value?
A: The value was 86.08%.

Q: What does the source list for NC(N)=O [Urea]?
A: Survival rate at 2 h (%): 75.33%; Survival rate at 6 h (%): 72.67%
